Only some compounds are listed: those with a hit (about 0.92% of all), similar ones and a draw of the others.
GALK inh = blocks human galactokinase activity. P51570. Purified GALK, Kinase-Glo residual ATP luminescence. Potency, µM (doses to about 57.5 µM), for the others: at the highest dose activity change, negative = inhibition, usual class: inhibitors. 270,000 tested, 0.007% active. AID 1868; also: potency is read from the fitted curve at half-maximal effect; % is scaled to controls: 0 for no effect and ±100 for the full control effect
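ATP-depletion format; final 35 uM ATP, 100 uM D-galactose, 5 nM enzyme; pH 8.0 HEPES/Mg2+ buffer; 60 min RT; luminescence read 10 min after detection reagent.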
miR-21 reporter = raises the signal of a miR-21 reporter; AID 2288; 340,000 tested, under 10 active; Potency, µM (doses to about 38.3 µM), inactives show at the top dose reporter change, positive = more light; HeLa miR-21 FLuc reporter, luciferase, 48 h; active = well fitted rising curve with a large enough effect; inconclusive = small, poorly fitted or top-dose-only effect; inactive = no such curve, though single readings can be large or run the other way;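 note: % of control where 0% means no effect; miR-21 action dims this reporter so a rising signal means less miR-21 action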
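HeLa cells stably expressing CMV-driven firefly luciferase with a downstream miR-21 binding sequence, endogenously expressing miR-21, were treated with titrations (up to about 40uM final) for 48 hours at 37 degree Celsius. Luciferase luminescence was read after lysis.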
RXFP1 agonist = activates the human relaxin receptor RXFP1; 370,000 tested, 0.3% active; HEK293T-RXFP1 cAMP TR-FRET, 30 min; response scale: percent of porcine relaxin response, buffer zero; AID 2676; Potency, µM (top dose mostly 57.5 µM), inactives show top-dose activation, most hits filed as activators; Q9HBX9; also: potency is read from the fitted curve at half-maximal effect; % is scaled to controls: 0 for no effect and ±100 for the full control effect; nearly all actives have a fitted effect of over 60% in size
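cAMP rise read by TR-FRET after 30 min, 37C compound exposure (up to 58 uM) in RXFP1-transfected HEK293 cells with Ro 20174 present. EC50 from Hill-equation fits, with 29 nM porcine relaxin as 100% and buffer as basal.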
PKM2 act = activators of human pyruvate kinase M2 | P14618 | Potency, µM (highest dose often 57.5 µM), for inactives: at the top dose activation, usual class: activators | 260,000 tested, 0.34% active | purified PKM2, Kinase-Glo ATP luminescence, activation; response scale: 0% is enzyme alone, no compound | AID 1631; also: potency is read from the fitted curve at half-maximal effect; % is scaled to controls: 0 for no effect and ±100 for the full control effect; nearly all actives have a fitted effect of over 55% in size
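Purified hPK-M2 (>95%) run at intermediate activity with 0.1 mM ADP and 0.5 mM PEP in 50 mM imidazole pH 7.2, KCl, MgCl2; 1 h room temperature. ATP formed read by Kinase-Glo luminescence; normalized to uninhibited and no-enzyme controls.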
RXFP1 antag = blocks the human relaxin receptor RXFP1 | activity change, negative = inhibition, % at 57.5 µM | 350,000 tested, 0.59% active | HEK293-RXFP1, relaxin-stimulated cAMP HTRF, 30 min; hits give low values;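 active = activity change of -60% or lower, but not beyond a set lower limit; inconclusive = change between -60% and -40%, or beyond the set limit; inactive = change above -40%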; also: % is scaled to controls: 0 for no effect and ±100 for the full control effect
KinaseGlo FLuc = counter-screen: inhibitors of Kinase-Glo firefly luciferase. Kinase-Glo luciferase, ATP luminescence, 8 min. Potency, µM (series often up to 38.3 µM), for inactives: at the top dose activity change, negative = inhibition, most hits filed as inhibitors. 200,000 tested, 0.28% active. AID 1379; also: potency is read from the fitted curve at half-maximal effect; % is scaled to controls: 0 for no effect and ±100 for the full control effect; nearly all actives have a fitted effect of over 60% in size
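Light output from Kinase-Glo luciferase with luciferin and 10 uM ATP in 50 mM imidazole pH 7.2, KCl, MgCl2, Tween 20, BSA; compound pin-delivered, 8-min ambient incubation, then luminescence read.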
Active calls of the source: *; ? = inconclusive; . = no result given; [ ] = another dose, or the depositor's remark. Unless noted, calls follow the shape of the dose curve; as a rule, active = well fitted curve in the direction sought with a large enough effect; inconclusive = small, poorly fitted or top-dose-only effect, or another doubt; inactive = no such curve, though single readings can be large; an effect the other way counts as inactive or inconclusive.

Field names – A = GALK inh; B = miR-21 reporter; C = RXFP1 agonist; D = PKM2 act; E = RXFP1 antag; F = KinaseGlo FLuc
SMILES: c1ccc(Cn2nnc3c(N4CCc5ccccc5C4)ncnc32)cc1
  A: 5%	B: 0%	C: -2%	D: 14µM*	E: -2	F: 0%
SMILES: CCN1CCN(c2ncnc3c2nnn3Cc2ccccc2)CC1
  A: 0%	B: -1%	C: 1%	D: 3%	E: -9	F: -3%
SMILES: Cc1ccc(N=C2NC(=O)/C(=C\c3ccc(C)s3)S2)cc1
  A: -1%	B: -4%	C: -2%	D: 0%	E: -2	F: -3%
SMILES: O=C(Nc1ccc(C(=O)N2CCOCC2)cc1)c1cccc(Br)c1
  A: -3%	B: -25%	C: 0%	D: -2%	E: -12	F: .
SMILES: CC(C)(C)c1ccc(C(=O)Nc2ccc(C(=O)N3CCOCC3)cc2)cc1
  A: -4%	B: 9%	C: 6%	D: -5%	E: -76*	F: .
SMILES: O=C(Nc1ccccc1)Nc1ccc(C(=O)N2CCCC2)cc1
  A: 20%	B: -1%	C: 0%	D: -52%	E: -9	F: 6.3µM*
SMILES: O=C(c1ccc2c(c1)OCO2)N1CCCC1
  A: -1%	B: -4%	C: 0%	D: 1%	E: 6	F: -2%
SMILES: O=C(Nc1ccc(C(=O)N2CCCC2)cc1)c1ccc2c(c1)OCO2
  A: 2%	B: -37%	C: 0%	D: -46%	E: -5	F: 13µM*
SMILES: CC(=O)Nc1ccc(-c2csc(NC(C)c3ccccc3)n2)cc1 (stereo not drawn)
  A: 11%	B: 0%	C: -1%	D: -7%	E: -3	F: -5%
SMILES: COc1ccc(C(=O)O/N=C2\C(=O)N(C)c3ccccc32)cc1
  A: .	B: .	C: .	D: .	E: 0	F: .
SMILES: COc1ccc(C(=O)N=c2nc3ccccn3s2)cc1
  A: 5%	B: -13%	C: 11%	D: -76%	E: 8	F: 7.9µM*
SMILES: Cc1ccc(N2C(=O)/C(=C/c3cccnc3)SC2=S)cc1
  A: -1%	B: -5%	C: -2%	D: -20%	E: -8	F: 0%
SMILES: Cc1ccc(/C=C2/SC(=S)N(c3ccc(S(=O)(=O)Nc4nccs4)cc3)C2=O)cc1
  A: 3%	B: 1%	C: 23%	D: ?	E: -67*	F: .
SMILES: Cc1ccc(Oc2ccc3c(c2)C(=O)N(c2ccc(S(=O)(=O)Nc4nccs4)cc2)C3=O)cc1
  A: -2%	B: -1%	C: 0%	D: 4%	E: -107*	F: -1%
SMILES: O=C1/C(=C/c2ccccn2)SC(=S)N1c1ccc(O)cc1
  A: -2%	B: -11%	C: 8%	D: 0%	E: -2	F: .

3 entries from above, arranged by formula weight, rising.
Field names – A = GALK inh; B = miR-21 reporter; C = RXFP1 agonist; D = PKM2 act; E = RXFP1 antag; F = KinaseGlo FLuc
SMILES: COc1ccc(C(=O)O/N=C2\C(=O)N(C)c3ccccc32)cc1
  A: .	B: .	C: .	D: .	E: 0	F: .
SMILES: O=C(Nc1ccc(C(=O)N2CCCC2)cc1)c1ccc2c(c1)OCO2
  A: 2%	B: -37%	C: 0%	D: -46%	E: -5	F: 13µM*
SMILES: CC(C)(C)c1ccc(C(=O)Nc2ccc(C(=O)N3CCOCC3)cc2)cc1
  A: -4%	B: 9%	C: 6%	D: -5%	E: -76*	F: .

(listing goes on)
Field names – A = GALK inh; B = miR-21 reporter; C = RXFP1 agonist; D = PKM2 act; E = RXFP1 antag; F = KinaseGlo FLuc
SMILES: O=C1/C(=C\c2ccccn2)SC(=S)N1c1ccc(S(=O)(=O)Nc2nccs2)cc1
  A: 1%	B: -2%	C: 0%	D: -2%	E: -81*	F: .
SMILES: COc1ccc(/C=C2/SC(=S)N(c3ccc(S(=O)(=O)Nc4nccs4)cc3)C2=O)cc1
  A: -3%	B: -3%	C: 0%	D: 3%	E: -80*	F: .
SMILES: CCC(Cn1nnc2ccccc2c1=O)NC(=O)Nc1cccc(C)c1C (stereo not drawn)
  A: .	B: 5%	C: 3%	D: .	E: 2	F: .
SMILES: Cc1cc(C)c(Cn2c3ccccc3c3cnn(CC(=O)NCCN4CCOCC4)c(=O)c32)c(C)c1
  A: -2%	B: 11%	C: 0%	D: .	E: -64*	F: .
SMILES: COc1ccc(N2C(=O)C(Cl)=C(N3CCOCC3)C2=O)cc1
  A: 2%	B: 9%	C: 1%	D: 23%	E: -62*	F: .
SMILES: Cc1cccc(N2C(=O)C(Cl)=C(N3CCOCC3)C2=O)c1
  A: -3%	B: 0%	C: 0%	D: ?	E: 2	F: .
SMILES: O=C1C(Cl)=C(N2CCOCC2)C(=O)N1c1cccc(Cl)c1
  A: 5%	B: 16%	C: 4%	D: 14µM*	E: 11	F: -4%
SMILES: O=S(=O)(c1cccc(F)c1)N1CCCN(c2ccc(C(F)(F)F)cn2)CC1
  A: 5%	B: 4%	C: -1%	D: -3%	E: 11	F: .
SMILES: CCOc1ccccc1NC(=O)CSc1nc(N)c(C#N)cc1C#N
  A: -3%	B: -24%	C: ?	D: 4%	E: 17	F: 1%
SMILES: COc1ccccc1NC(=O)CSc1nc(N)c(C#N)cc1C#N
  A: -2%	B: -20%	C: ?	D: 14µM*	E: 52	F: -3%
SMILES: Cc1ccc(Cl)cc1-n1ncc2c(N3CCN(Cc4ccccc4)CC3)ncnc21
  A: .	B: ?	C: 3%	D: .	E: -81*	F: .
SMILES: CCN1CCN(c2ncnc3c2cnn3-c2cc(Cl)ccc2C)CC1
  A: .	B: 0%	C: 1%	D: .	E: -1	F: .
SMILES: CCCNS(=O)(=O)c1cccn1-c1ncc(C(F)(F)F)cc1Cl
  A: -4%	B: -3%	C: 3%	D: ?	E: 2	F: -3%
SMILES: O=S(=O)(NCc1cccnc1)c1cccn1-c1ncc(C(F)(F)F)cc1Cl
  A: -2%	B: 7%	C: 1%	D: 22µM*	E: -3	F: 2%
SMILES: COC/C=C/C1=CC2=CC(=O)C(C)(OC(=O)c3cnc4ccccc4n3)C(=O)C2=CN1Cc1ccc2c(c1)OCO2 (stereo not drawn)
  A: .	B: .	C: .	D: 3%[11.5 µM]	E: .	F: 2%[7.66 µM]

(list continues)
Field names – A = GALK inh; B = miR-21 reporter; C = RXFP1 agonist; D = PKM2 act; E = RXFP1 antag; F = KinaseGlo FLuc
SMILES: COc1ccc(CCn2c(O)cc3nn(-c4nc5ccccc5s4)c(=O)c-3c2C)cc1
  A: -9%	B: -7%	C: 0%	D: 7%	E: -70*	F: .
SMILES: COc1ccc(CN2CCN(c3nc4ccccc4s3)CC2)cc1
  A: -1%	B: -8%	C: 3%	D: .	E: -3	F: .
SMILES: O=C(CSc1nc(-c2ccccc2)cs1)NCCN1C(=O)CSC1=O
  A: -3%	B: -51%	C: 0%	D: 7%	E: -23	F: -3%
SMILES: O=C(COc1ncnc2scc(-c3ccccc3)c12)NCCN1C(=O)CSC1=O
  A: 13%	B: -1%	C: 11µM*	D: 4%	E: .	F: 0%
SMILES: O=C1CSc2ccc(C(=O)O)cc2N1
  A: 7%	B: -1%	C: 0%	D: -3%	E: -77*	F: -1%
SMILES: CSc1ccc(C2C(C(=O)c3ccco3)=C(O)C(=O)N2c2nnc(SC)s2)cc1 (stereo not drawn)
  A: 0%	B: -59%	C: 16µM*	D: .	E: -2	F: .
SMILES: Cc1nnc(N2C(=O)C(O)=C(C(=O)c3ccco3)C2c2ccc(F)cc2)s1 (stereo not drawn)
  A: -4%	B: 10%	C: ?	D: 19%	E: .	F: 2%
SMILES: COc1ccc(S(=O)(=O)N2CCOCC2)cc1NC(=O)CSc1nnc2ccccn12
  A: 16%	B: -1%	C: 3.5µM*	D: 2%	E: .	F: 3%
SMILES: O=C(CN1C(=O)COc2ccc(S(=O)(=O)NC3CCCC3)cc21)Nc1ccc(Cl)cc1
  A: .	B: -11%	C: 1%	D: .	E: -15	F: .
SMILES: Cc1ccc(S(=O)(=O)NCC(=O)NCc2cc(=O)n(C)c(=O)n2C)cc1
  A: 0%	B: -2%	C: 6%	D: .	E: 6	F: .
SMILES: Cc1ccc(S(=O)(=O)NCC(=O)NCc2cc(=O)n(C)c(=O)n2C)cc1C
  A: .	B: 0%	C: 6%	D: -2%	E: -100*	F: .
SMILES: Clc1ccc(N2CCN(Cc3ccco3)CC2)cc1
  A: -6%	B: -6%	C: 1%	D: -1%	E: -19	F: .
SMILES: CC(C(=O)NCC1CCCCC1)N(C)Cc1ccc(Cl)cc1 (stereo not drawn)
  A: 0%	B: 3%	C: 5%	D: -2%	E: -78*	F: -4%
SMILES: CCN(CC)S(=O)(=O)c1ccc2c(c1)N(CC(=O)Nc1cccnc1Cl)C(=O)CO2
  A: 8%	B: -1%	C: 13µM*	D: 13%	E: 8	F: 9%
SMILES: O=C(CN1C(=O)COc2ccc(S(=O)(=O)N3CCCC3)cc21)NCc1ccccn1
  A: 5%	B: 0%	C: 0%	D: -2%	E: 4	F: .
SMILES: CCN(CC)S(=O)(=O)c1ccc2c(c1)N(CC(=O)Nc1c(C)cccc1C)C(=O)CO2
  A: .	B: -2%	C: -1%	D: .	E: 3	F: .

Screening results as filed in PubChem.
